Source: patent publication US20250084372A1, “IN VITRO DERIVATION OF GONADAL SOMATIC CELLS” (Conception Bisosciences, Inc., priority 2020, published 2025)

System: ovarian somatic cells (OSCs)
Assay: OSC induction with different BMP isoforms, marker qPCR
Assay type: cell-based, human
Conditions: 20 ng/mL BMP in granulosa double medium
Protocol: Gonadal somatic cells were induced in granulosa double medium comprising different BMP isoforms, and the expression of bipotential gonadal markers as well as that of granulosa markers were measured in the resulting cells.
The replated cells from the second intermediate population were incubated in the granulosa double medium (also referred to as gonadal induction medium or OSC induction medium) according to Table 17, with 20 ng/mL of either BMP4, BMP2, BMP 7 or BMP15. The expression of bipotential gonadal markers (WT1, LHX9, GADD45G and GATA4) as well as granulosa markers (FOXL2, NR1H4 and KITLG) were measured by qPCR in the resulting cells.

B1: BMP2: BMP isoform in gonadal induction medium (protein, UniProt P12643 283-396, looked up)
Bone morphogenetic protein 2: QAKHKQRKRLKSSCKRHPLYVDFSDVGWNDWIVAPPGYHAFYCHGECPFPLADHLNSTNHAIVQTLVNSVNSKIPKACCVPTELSAISMLYLDENEKVVLKNYQDMVVEGCGCR
expression of bipotential gonadal markers (WT1, LHX9, GADD45G, GATA4) compared to BMP4: comparable or higher
expression of granulosa markers (FOXL2, NR1H4, KITLG) compared to BMP4: comparable or higher
